Measurements: paper PMC6718736, “Validation of in vitro methods for human cytochrome P450 enzyme induction: Outcome of a multi-laboratory study” (Toxicology in Vitro, 2019)
“Also recorded” adds a separate entry of the source.

Experiments:
CYP1A2 [1] = test: CYP1A2 enzyme induction assay in cryopreserved HepaRG cells (phenacetin probe, LC/MS); assay type: in vitro ADME, human
CYP2B6 [2] = test: CYP2B6 enzyme induction assay in cryopreserved HepaRG cells (bupropion probe, LC/MS); assay type: in vitro ADME, human; settings: for Prediction in vivo inducer: Cmax/F2 >0.5 criterion
CYP3A4 [3] = test: CYP3A4 enzyme induction assay in cryopreserved HepaRG cells (midazolam probe, LC/MS); assay type: in vitro ADME, human
CYP1A2 [4] = test: CYP1A2 enzyme induction assay in cryopreserved primary human hepatocytes (PHH); assay type: in vitro ADME; settings: for Prediction in vivo inducer: Cmax/F2 >0.5 criterion
CYP2B6 [5] = test: CYP2B6 enzyme induction assay in cryopreserved primary human hepatocytes (PHH); assay type: in vitro ADME
CYP3A4 [6] = test: CYP3A4 enzyme induction assay in cryopreserved primary human hepatocytes (PHH)
[7] = positive in one batch in each of the three laboratories

O=C1C(CC[S+]([O-])c2ccccc2)C(=O)N(c2ccccc2)N1c1ccccc1 (centres unmarked) [Sulfinpyrazone]
Prediction in vivo inducer (CYP1A2 [1]; Cmax/F2 >0.5 criterion): Yes | Induction in vitro (CYP1A2 [1]; [7]): Yes | Prediction in vivo inducer (CYP2B6 [2]): Yes | Prediction in vivo inducer (CYP2B6 [2]; listed as sulfinpyrazone): predicted as positive inducers | Induction in vitro (CYP2B6 [2]; [7]): Yes | Induction in vitro (CYP3A4 [3]): Yes | Prediction in vivo inducer (CYP3A4 [3]): Yes | Prediction in vivo inducer (CYP1A2 [4]): No | Prediction in vivo inducer (CYP1A2 [4]; listed as sulfinpyrazone): non-inducer; also recorded: missed the in vivo prediction | Induction in vitro (CYP1A2 [4]; positive in one donor in each of the three laboratories): No | Induction in vitro (CYP2B6 [5]): Yes | Prediction in vivo inducer (CYP2B6 [5]): Yes | Induction in vitro (CYP3A4 [6]): Yes | Prediction in vivo inducer (CYP3A4 [6]): Yes
